Where two headings read alike, the source gives them in different places.
Key:
Format in all cases: in vivo, mouse
Herpes virus = settings: oral
Influenza PR 8 virus = assay: Chemoprophylaxis of Influenza PR 8 virus infection in mice
[1] = test system: Influenza B Massachusetts virus; assay: Chemoprophylaxis of Influenza B Massachusetts virus infection in mice; settings: oral
Method: The activity of four compounds on Influenza B Mass. was tested in mice.
A portion of a commercially available sample of amantadine was recrystallized from isopropanol. The activity of the material against Influenza B Mass. was tested for the sample as obtained, the recrystallized portion, and the mother liquor obtained from recrystallizing the portion.

[2] = test system: Influenza Ann Arbor virus; assay: Chemoprophylaxis of Influenza Ann Arbor (A1) virus infection in mice; settings: oral
[3] = intravenous, no pre-infection, total dose 2 μg
[4] = intravenous, no pre-infection, total dose 20 μg
[5] = intravenous, no pre-infection, total dose .2 μg

Question: What does the source list for CCC(C)=NNC(N)=S [2-Butanone, thiosemicarbazone, 2-butanone, thiosemicarbazone]?
Answer: Survivors (Herpes virus; total dose .00005 μg): 3; No. animals surviving when 17/20 controls are dead (Herpes virus; total dose .005 μg): 3; Survivors (Herpes virus; total dose .005 μg): 2; Survivors (Influenza PR 8 virus; drinking water 24 h post-infection only, second printed value (concentration column unclear)): 3; Survivors (Influenza PR 8 virus; drinking water 24 h pre- and 24 h post-infection, 5 mg/ml): 3; Survivors (Influenza PR 8 virus; drinking water 24 h pre- and 24 h post-infection, 10 mg/ml): 2; Survivors (Influenza PR 8 virus; drinking water 24 h pre- and 24 h post-infection, .05 mg/ml): 3; No. animals surviving when 18/20 of controls are dead (Influenza PR 8 virus; [3]): 3; Survivors (Influenza PR 8 virus; [3]): 3; No. animals surviving when 18/20 of controls are dead (Influenza PR 8 virus; [4]): 3; Survivors (Influenza PR 8 virus; [4]): 3; No. animals surviving when 18/20 of controls are dead (Influenza PR 8 virus; [5]): 2; Survivors (Influenza PR 8 virus; [5]): 2; No. animals surviving when 19/20 of controls are dead (Influenza PR 8 virus; oral, total dose .000005 μg): 2; Survivors (Influenza PR 8 virus; oral, total dose .00005 μg): 2; No. animals surviving after 6 days (Influenza PR 8 virus; oral, total dose .0005 μg): 2; No. animals surviving after 7 days (Influenza PR 8 virus; oral, total dose .0005 μg): 3; No. animals surviving after 6 days (Influenza PR 8 virus; oral, total dose .005 μg): 2; No. animals surviving after 7 days (Influenza PR 8 virus; oral, total dose .005 μg): 2; No. animals surviving after 6 days (Influenza PR 8 virus; subcutaneous, total dose .000005 μg): 2; No. animals surviving after 6 days (Influenza PR 8 virus; subcutaneous, total dose .00005 μg): 3; No. animals surviving after 6 days (Influenza PR 8 virus; subcutaneous, total dose .005 μg): 3

Question: N=C(N)NN [aminoguanidine, bicarbonate] was tested. Which “No. animals surviving after 7 days” value ([1]; total dose 40pg) did it give?
Answer: The value was 2.

Question: And the “No. animals surviving after 7 days” value ([1]; total dose 400pg)?
Answer: Its value is 4.

Question: And the Survivors ([1]; total dose 400pg)?
Answer: The Survivors was 2.

Question: What about the “No. animals surviving after 7 days” value ([1]; total dose 4ng) of the same compound?
Answer: The value was 4.

Question: What about the “No. animals surviving after 7 days” value ([1]; total dose 400ng) of the same compound?
Answer: Its value is 3.

Question: What about the “No. animals surviving after 7 days” value ([1]; total dose 4μg) of the same compound?
Answer: Its value is 3.

Question: Which Survivors ([2]; total dose 30 ng) does the source give for Cc1ccccc1NC(=S)NN=C1CCCC1 [cyclopentanone, 3-thio-4-o-tolylsemicarbazone] here?
Answer: Its Survivors is 1.

Question: And the “No. animals surviving after 5 days” value ([2]; total dose 30 μg)?
Answer: Its value is 5.

— US4032659A (priority 1975, dated 1977)
